Reference: US20260200947A1, “FUSED CYCLIC COMPOUNDS AND USE THEREOF” (Jacobio Pharmaceuticals Co., Ltd., priority 2022, published 2026)

Row | SMILES | IC50 (SW620 cells (K-Ras G12V)) | IC50 (AGS cells (K-Ras G12D))
1 | C#Cc1c(F)ccc2cc(N)cc(-c3nc4c5c(nc(OC[C@@]67CCCN6C[C@H](F)C7)nc5c3F)N3C(COCC[C@@H]3C)C4=C)c12 (stereo partly drawn) [Compound 128] | 3.26 nM | –
2 | C#Cc1c(F)ccc2cc(N)cc(-c3nc4c5c(nc(OC[C@@]67CCCN6CC(=C)C7)nc5c3F)N3CCCOC[C@H]3CO4)c12 [Compound 7] | – | 3.23 nM
3 | C[C@H]1CCOC[C@H]2COc3c(Cl)c(-c4ccc(F)c5sc(N)c(C#N)c45)c(F)c4nc(OC[C@@]56CCCN5C[C@H](F)C6)nc(c34)N21 [Compound 158] | – | 0.967 nM
